# Measurements taken from patent publication US20240139185A1, “COMPOUNDS THAT PARTICIPATE IN COOPERATIVE BINDING AND USES THEREOF” (Revolution Medicines, Inc., priority 2018, published 2024).
# Columns and labels:
# cyclophilin A (CYPA) = cyclophilin A (CYPA) (Homo sapiens, UniProt P62937); test: CYPA-compound binary complex formation by SPR; conditions: read-out: CYPA Binding Affinity
# How it was run: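 Steady-state fit of SPR responses gave binding affinity. Analyte series: 50 μM downward, 2-fold, 10 points, running buffer HBS-P+ (0.05% Tween20, pH7.4, 2% DMSO), 60 s on/60 s off. Surface: biotinylated CypA-Avi captured at 4 μg/ml against a reference cell, regenerated with NaOH/guanidine.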
# [1] = molecular target: BRAF-GTP-KRAS-G12C complex (Homo sapiens, UniProt P01116+P62937, G12C); test: KRAS-BRAF complex disruption through competition with CYPA-compound by TR-FRET; conditions: read-out: BRAF-GTP-KRAS-G12C Disruption; biochemical BRAF-KRAS G12C-GTP disruption assay EC50, with CYPA
# How it was run: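 Compound-driven loss of KRAS–BRAF RBD TR-FRET signal, Eu-anti-His/APC-anti-GST pair (10/50 nM, 1.5 h), following a 3 h room-temperature preincubation of 50 nM His6-KRAS G12C-GTP and 500 nM CypA in 25 mM Hepes pH 7.3 buffer. EC50 by 4-parameter fit. Variants used wild-type KRAS in place of G12C or no CypA.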
# pERK in H358 cells = test: pERK inhibition in H358 cells; conditions: read-out: Cellular pERK inhibition, 4 hours treatment
# How it was run: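 Human lung cancer H358 cells in RPMI/10% FBS were exposed to compound or DMSO for 4 h. Fixed and permeabilized cells were stained overnight at 4 C with anti-phospho-ERK1/2 (Thr202/Tyr204). Near-infrared imaging read the pERK signal at 800 nm, with DRAQ5 at 700 nm.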
Kd (cyclophilin A (CYPA)),EC50 [1],IC50 (pERK in H358 cells),Structure (SMILES)
> 15 µM,< 0.5 µM,> 10 µM,CCC[C@@H](C(=O)N[C@H]1Cc2cc(O)cc(c2)-c2ccc3c(C(C)(C)C#N)cn(c3c2)CC(C)(C)COC(=O)[C@@H]2CCCN(N2)C1=O)N(C)C(=O)C1CN(C(=O)CCl)C1
> 15 µM,< 0.5 µM,1 to 10 µM,CC(C)[C@@H](C(=O)N[C@H]1Cc2cc(O)cc(c2)-c2ccc3c(c2)n(c(=O)n3C2CCCCC2)C[C@H](C)COC(=O)[C@@H]2CCCN(N2)C1=O)N(C)C(=O)C1CN(C(=O)CCl)C1
> 15 µM,< 0.5 µM,> 10 µM,COCC(C#N)(COC)c1cn2c3cc(ccc13)-c1cc(O)cc(c1)C[C@H](NC(=O)[C@H](C(C)C)N(C)C(=O)C1CN(C(=O)CCl)C1)C(=O)N1CCC[C@H](N1)C(=O)OCC(C)(C)C2
< 5 µM,< 0.5 µM,< 1 µM,CC(C)[C@@H](C(=O)N[C@H]1Cc2cc(O)cc(c2)-c2ccc3c(C(C)(C)C#N)cn(c3c2)CC(C2CC2)COC(=O)[C@@H]2CCCN(N2)C1=O)N(C)C(=O)C1CN(C(=O)CCl)C1 (stereo partly drawn)
> 15 µM,< 0.5 µM,< 1 µM,CCC(C#N)(CC)c1cn2c3cc(ccc13)-c1cc(O)cc(c1)C[C@H](NC(=O)[C@H](C(C)C)N(C)C(=O)C1CN(C(=O)CCl)C1)C(=O)N1CCC[C@H](N1)C(=O)OCC(C)(C)C2
> 15 µM,< 0.5 µM,1 to 10 µM,CC(C)[C@@H](C(=O)N[C@H]1Cc2cc(O)cc(c2)-c2ccc3c(-c4cccc5c4OCO5)cn(c3c2)CC(C)(C)COC(=O)[C@@H]2CCCN(N2)C1=O)N(C)C(=O)C1CN(C(=O)CCl)C1
> 15 µM,< 0.5 µM,1 to 10 µM,CC(C)[C@@H](C(=O)N[C@H]1Cc2cc(O)cc(c2)-c2ccc3c(-c4cccc(Cl)c4C#N)cn(c3c2)CC(C)(C)COC(=O)[C@@H]2CCCN(N2)C1=O)N(C)C(=O)C1CN(C(=O)CCl)C1
> 15 µM,< 0.5 µM,1 to 10 µM,C=CC(=O)N1CC[C@H](C(=O)N(C)[C@H](C(=O)N[C@H]2Cc3cc(O)cc(c3)-c3ccc4c(-c5c(C#N)cccc5OC5CCOCC5)cn(c4c3)CC(C)(C)COC(=O)[C@@H]3CCCN(N3)C2=O)C(C)C)C1
> 15 µM,0.5 to 5 µM,> 10 µM,C=CC(=O)N1CC[C@H](C(=O)N(C)[C@H](C(=O)N[C@H]2Cc3cc(O)cc(c3)-c3ccc4c(c3)N(CC(C)(C)COC(=O)[C@@H]3CCCN(N3)C2=O)CC4(C)c2cccnc2)C(C)C)C1 (stereo partly drawn)
5 to 15 µM,< 0.5 µM,< 1 µM,CC(C)[C@@H](C(=O)N[C@H]1Cc2cc(O)cc(c2)-c2ccc3c(c2)n(c(=O)n3C2CCC2)C[C@H](C)COC(=O)[C@@H]2CCCN(N2)C1=O)N(C)C(=O)C1CN(C(=O)CCl)C1
5 to 15 µM,< 0.5 µM,1 to 10 µM,CC(C)[C@@H](C(=O)N[C@H]1Cc2cc(O)cc(c2)-c2ccc3c(C4(C#N)CC4)cn(c3c2)CC(C)(C)COC(=O)[C@@H]2CCCN(N2)C1=O)N(C)C(=O)C1CN(C(=O)CCl)C1

# More lines, now with the values behind:
Structure (SMILES),Kd (cyclophilin A (CYPA)),EC50 [1],IC50 (pERK in H358 cells)
C=CC(=O)N1CC[C@H](C(=O)N(C)[C@H](C(=O)N[C@H]2Cc3cc(O)cc(c3)-c3ccc4c(c3)c(c(C#N)n4CCC#N)CC(C)(C)COC(=O)[C@@H]3CCCN(N3)C2=O)C(C)C)C1,5 to 15 µM,< 0.5 µM,1 to 10 µM
CC(C)[C@@H](C(=O)N[C@H]1Cc2cc(O)cc(c2)-c2ccc3c(C(C)(C)C#N)cn(c3c2)CC(C)(C)COC(=O)[C@@H]2CCCN(N2)C1=O)N(C)C(=O)C1CN(C(=O)[C@@H](C)Cl)C1,5 to 15 µM,0.5 to 5 µM,1 to 10 µM
C=CC(=O)N1CC[C@H](C(=O)N(C)[C@H](C(=O)N[C@H]2Cc3cc(O)cc(c3)-c3ccc4cc(-c5cccc6c5OC(F)(F)O6)n(c4c3)C[C@H](C)COC(=O)[C@@H]3CCCN(N3)C2=O)C(C)C)C1,> 15 µM,> 5 µM,> 10 µM
CC(C)[C@@H](C(=O)N[C@H]1Cc2cc(O)cc(c2)-c2ccc3c(C(C)(C)C#N)cn(c3c2)CC(CC2CC2)COC(=O)[C@@H]2CCCN(N2)C1=O)N(C)C(=O)C1CN(C(=O)CCl)C1 (stereo partly drawn),5 to 15 µM,< 0.5 µM,1 to 10 µM
C=CC(=O)N1CCC(C(=O)N(C)[C@H](C(=O)N[C@H]2Cc3cc(O)cc(c3)-c3ccc4c(C(C)(C)C#N)cn(c4c3)CC3(COC3)COC(=O)[C@@H]3CCCN(N3)C2=O)C(C)C)C1 (stereo partly drawn),> 15 µM,> 5 µM,> 10 µM
CCC(C)C(C(=O)NC1Cc2cc(O)cc(c2)-c2ccc3c(C(C)(C)C#N)cn(c3c2)CC(C)(C)COC(=O)C2CCCN(N2)C1=O)N(C)C(=O)C1CN(C(=O)CCl)C1 (stereo not drawn),5 to 15 µM,< 0.5 µM,1 to 10 µM
CC(C)[C@@H](C(=O)N[C@H]1Cc2cc(O)cc(c2)-c2ccc3c(-c4ccccc4OC4CCOCC4)cn(c3c2)CC(C)(C)COC(=O)[C@@H]2CCCN(N2)C1=O)N(C)C(=O)C1CN(C(=O)CCl)C1,5 to 15 µM,< 0.5 µM,< 1 µM
CC#CC(=O)N1CCC[C@H](C(=O)N(C)[C@H](C(=O)N[C@H]2Cc3cc(O)cc(c3)-c3ccc4c(C(C)(C)C#N)cn(c4c3)CC(C)(C)COC(=O)[C@@H]3CCCN(N3)C2=O)C(C)C)C1,< 5 µM,> 5 µM,> 10 µM
CC#CC(=O)N1CC[C@@H](C(=O)N(C)[C@H](C(=O)N[C@H]2Cc3cc(O)cc(c3)-c3ccc4nc(C)n(c4c3)CC(C)(C)COC(=O)[C@@H]3CCCN(N3)C2=O)C(C)C)C1,> 15 µM,> 5 µM,> 10 µM
C=CC(=O)N1CC[C@H](C(=O)N(C)[C@H](C(=O)N[C@H]2Cc3cc(O)cc(c3)-c3ccc4c(c3)N(CC(C)(C)COC(=O)[C@@H]3CCCN(N3)C2=O)CC42Cc3ccncc3C2)C(C)C)C1 (stereo partly drawn),5 to 15 µM,0.5 to 5 µM,1 to 10 µM
CC(=O)C(C)(C)c1cn2c3cc(ccc13)-c1cc(O)cc(c1)C[C@H](NC(=O)[C@H](C(C)C)N(C)C(=O)C1CN(C(=O)CCl)C1)C(=O)N1CCC[C@H](N1)C(=O)OC[C@@H](C)C2,5 to 15 µM,< 0.5 µM,1 to 10 µM
CC(C)[C@@H](C(=O)N[C@H]1Cc2cc(O)cc(c2)-c2ccc3c(C(C)(C)C#N)cn(c3c2)CC(C)(C)COC(=O)[C@@H]2CCCN(N2)C1=O)N(C)C(=O)[C@@H]1CCN(C(=O)[C@H](C)Cl)C1,> 15 µM,0.5 to 5 µM,1 to 10 µM
CC(C)[C@@H](C(=O)N[C@H]1Cc2cc(O)cc(c2)-c2ccc3c(C#N)nn(c3c2)CC(C)(C)COC(=O)[C@@H]2CCCN(N2)C1=O)N(C)C(=O)C1CN(C(=O)CCl)C1,5 to 15 µM,< 0.5 µM,1 to 10 µM
CC[C@H](C)[C@@H](C(=O)N[C@H]1Cc2cc(O)cc(c2)-c2ccc3c(C(C)(C)C#N)cn(c3c2)CC(C)(C)COC(=O)[C@@H]2CCCN(N2)C1=O)N(C)C(=O)C1CN(C(=O)CCl)C1,5 to 15 µM,< 0.5 µM,< 1 µM
CC(C)[C@@H](C(=O)N[C@H]1Cc2cc(O)cc(c2)-c2ccc3c(c2)N(CC(C)(C)COC(=O)[C@@H]2CCCN(N2)C1=O)CC31CCOCC1)N(C)C(=O)C1CN(C(=O)CCl)C1,5 to 15 µM,< 0.5 µM,< 1 µM
CC(C)[C@@H](C(=O)N[C@H]1Cc2cc(O)cc(c2)-c2ccc3c(-c4ccccc4OC4CCCC4)cn(c3c2)CC(C)(C)COC(=O)[C@@H]2CCCN(N2)C1=O)N(C)C(=O)C1CN(C(=O)CCl)C1,> 15 µM,< 0.5 µM,1 to 10 µM
CC(C)[C@@H](C(=O)N[C@H]1Cc2cc(O)cc(c2)-c2ccc3c(C4CC4)c(C#N)n(c3c2)C[C@H](C)COC(=O)[C@@H]2CCCN(N2)C1=O)N(C)C(=O)C1CN(C(=O)[C@@H](C)Cl)C1,5 to 15 µM,0.5 to 5 µM,1 to 10 µM
CC(C)[C@@H](C(=O)N[C@H]1Cc2cc(O)cc(c2)-c2ccc3c(-c4c(F)cccc4C#N)cn(c3c2)CC(C)(C)COC(=O)[C@@H]2CCCN(N2)C1=O)N(C)C(=O)C1CN(C(=O)CCl)C1,5 to 15 µM,< 0.5 µM,< 1 µM
